# Test results taken from patent US8278296B2, “Manipulation of brain CDP-diacylglycerol and uses thereof” (priority 2006, dated 2012).
# Entries after “also recorded” stand apart in the source; their conditions may differ.
# System: 5HT2 receptor
# Conditions: hippocampus, similar in frontal cortex
# Procedure: Hippocampal slices were incubated with either [^3H]inositol (FIGS. 13A-13B) or [^3H]cytidine (FIG. 13C) for 30 min, followed by addition of indicated concentrations of LY53857 (6-methyl-1-(1-methylethyl)-ergoline-8β-carboxylic acid 2-hydroxy-1-methylpropyl ester maleate). […] After 60 min, tritiated inositol phosphate, inositol phospholipids, or CDP-diacylglycerol were assayed. Each bar is the mean±SEM (n=6). Data for each analyte were normalized across experiments and test drugs and then were analyzed for each drug by One-Way ANOVA of responses measured at the four concentration conditions of LY53857 (0, 0.1, 1, 10 μM). The ANOVAs were followed with Dunnett tests comparing the response in the presence of each concentration of LY53857 to the control effect of the antidepressant alone.
# To examine the extent to which the enhancing effects of antidepressant agents on inositol phosphate accumulation were dependent on postsynaptic 5HT2 receptor stimulation, each antidepressant was challenged with a range of concentrations of the 5HT2 receptor-selective antagonist, LY53857 (71-72). The antagonist was added after the prelabeling phase, but 15 min prior to the addition of α-methylserotonin to the incubating slices.
smiles,measurement,value
CNCCC(Oc1ccc(C(F)(F)F)cc1)c1ccccc1 (stereo not shown) [fluoxetine],inhibition by 5HT2 receptor blockade (LY53857) of the drug's PI labeling / phosphatidylinositol resynthesis effect,substantial; also recorded: significantly inhibited
